Experimental data taken from PMC8141872 (The Journal of Biological Chemistry, 2021).

Protein sequences, listed by entry. Tags and fused reporters are not part of them.
UniProt Q13418, whole entry, chain 1 of 3: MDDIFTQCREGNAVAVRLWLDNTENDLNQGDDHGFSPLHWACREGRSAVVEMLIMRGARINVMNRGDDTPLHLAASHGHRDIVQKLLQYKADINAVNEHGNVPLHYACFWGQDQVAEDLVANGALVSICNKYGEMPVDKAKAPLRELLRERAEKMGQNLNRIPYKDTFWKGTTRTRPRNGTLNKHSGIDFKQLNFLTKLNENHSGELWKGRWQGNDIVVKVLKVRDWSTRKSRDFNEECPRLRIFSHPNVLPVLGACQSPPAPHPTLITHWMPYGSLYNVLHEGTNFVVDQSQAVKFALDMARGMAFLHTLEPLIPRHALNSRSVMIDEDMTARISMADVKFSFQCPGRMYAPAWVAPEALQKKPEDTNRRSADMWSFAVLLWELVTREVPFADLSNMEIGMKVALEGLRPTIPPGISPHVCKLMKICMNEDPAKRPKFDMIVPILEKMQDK
IPP heterotrimer complex (ILK, PINCH-1, α-parvin), UniProt Q9NVD7, whole entry, chain 2 of 3: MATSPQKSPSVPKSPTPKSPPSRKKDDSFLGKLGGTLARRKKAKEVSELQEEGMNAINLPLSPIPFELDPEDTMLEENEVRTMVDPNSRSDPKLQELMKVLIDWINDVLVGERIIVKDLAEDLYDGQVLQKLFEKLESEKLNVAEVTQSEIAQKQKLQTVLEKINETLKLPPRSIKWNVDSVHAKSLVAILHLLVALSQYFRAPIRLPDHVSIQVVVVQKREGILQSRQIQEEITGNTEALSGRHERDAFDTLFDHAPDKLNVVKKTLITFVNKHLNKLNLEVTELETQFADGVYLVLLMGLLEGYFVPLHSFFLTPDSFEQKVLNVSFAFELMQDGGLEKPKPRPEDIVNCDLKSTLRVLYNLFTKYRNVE
IPP heterotrimer complex (ILK, PINCH-1, α-parvin), UniProt P48059, whole entry, chain 3 of 3: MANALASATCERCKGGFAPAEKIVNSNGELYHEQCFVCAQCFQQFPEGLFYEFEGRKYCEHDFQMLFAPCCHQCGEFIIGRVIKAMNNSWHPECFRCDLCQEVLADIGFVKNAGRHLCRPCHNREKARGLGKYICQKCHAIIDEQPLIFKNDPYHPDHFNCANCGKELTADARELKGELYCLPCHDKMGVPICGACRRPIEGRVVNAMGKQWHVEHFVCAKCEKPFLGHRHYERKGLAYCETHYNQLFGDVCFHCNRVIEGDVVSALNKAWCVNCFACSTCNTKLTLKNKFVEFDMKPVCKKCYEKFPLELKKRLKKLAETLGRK

Target: T1, IPP heterotrimer complex (ILK, PINCH-1, α-parvin) (human, UniProt Q13418 1-452; Q9NVD7 1-372; P48059 1-325)
T1 construct: human integrin-linked kinase (ILK), residues 1-452; human α-parvin, residues 1-372; human PINCH-1, residues 1-325; The complex is called hexahistidine-tagged; also called IPP complex; ILK-PINCH-Parvin; copies: + +
Assay: SEC; Superose 6 10/300 GL; purified IPP heterotrimer mixed with purified Kindlin-2 and Rsu-1, 4 °C at least 2 h; 20 mM Tris pH 7.5, 150 mM NaCl, 5% glycerol, 0.2 mM TCEP; peak reloaded on the same column
Details: both partners purified

B1: Kindlin-2 (residues 1-680) (natural protein, human, UniProt Q96AC1 1-680, looked up)
chain: MALDGIRMPDGCYADGTWELSVHVTDLNRDVTLRVTGEVHIGGVMLKLVEKLDVKKDWSDHALWWEKKRTWLLKTHWTLDKYGIQADAKLQFTPQHKLLRLQLPNMKYVKVKVNFSDRVFKAVSDICKTFNIRHPEELSLLKKPRDPTKKKKKKLDDQSEDEALELEGPLITPGSGSIYSSPGLYSKTMTPTYDAHDGSPLSPTSAWFGDSALSEGNPGILAVSQPITSPEILAKMFKPQALLDKAKINQGWLDSSRSLMEQDVKENEALLLRFKYYSFFDLNPKYDAIRINQLYEQAKWAILLEEIECTEEEMMMFAALQYHINKLSIMTSENHLNNSDKEVDEVDAALSDLEITLEGGKTSTILGDITSIPELADYIKVFKPKKLTLKGYKQYWCTFKDTSISCYKSKEESSGTPAHQMNLRGCEVTPDVNISGQKFNIKLLIPVAEGMNEIWLRCDNEKQYAHWMAACRLASKGKTMADSSYNLEVQNILSFLKMQHLNPDPQLIPEQITTDITPECLVSPRYLKKYKNKQITARILEAHQNVAQMSLIEAKMRFIQAWQSLPEFGITHFIARFQGGKKEELIGIAYNRLIRMDASTGDAIKTWRFSNMKQWNVNWEIKMVTVEFADEVRLSFICTEVDCKVVHEFIGGYIFLSTRAKDQNESLDEEMFYKLTSGWV
notes: human kindlin-2, residues 1-680; source: SUMO-tag cleaved by Ulp1
binding result: binds

B2: Ras suppressor-1 (Rsu-1), wild type, full length (natural protein, human, UniProt Q15404 1-277, looked up)
chain: MSKSLKKLVEESREKNQPEVDMSDRGISNMLDVNGLFTLSHITQLVLSHNKLTMVPPNIAELKNLEVLNFFNNQIEELPTQISSLQKLKHLNLGMNRLNTLPRGFGSLPALEVLDLTYNNLSENSLPGNFFYLTTLRALYLSDNDFEILPPDIGKLTKLQILSLRDNDLISLPKEIGELTQLKELHIQGNRLTVLPPELGNLDLTGQKQVFKAENNPWVTPIADQFQLGVSHVFEYIRSETYKYLYGRHMQANPEPPKKNNDKSKKISRKPLAAKNR
notes: after thrombin cleavage a few of its residues probably remain (surmised); also called Rsu-1 (WT); Rsu-1 WT; not shown: His6, N-terminal, cleaved
binding result: binds
